Here are results for twelve compounds from ChEMBL document CHEMBL5104167, “Development and profiling of mGlu7 NAMs with a range of saturable inhibition of agonist responses in vitro” (Bioorg Med Chem Lett, 2022).

Protein sequences, listed by entry. Tags and fused reporters are not part of them.
UniProt P35400, whole entry: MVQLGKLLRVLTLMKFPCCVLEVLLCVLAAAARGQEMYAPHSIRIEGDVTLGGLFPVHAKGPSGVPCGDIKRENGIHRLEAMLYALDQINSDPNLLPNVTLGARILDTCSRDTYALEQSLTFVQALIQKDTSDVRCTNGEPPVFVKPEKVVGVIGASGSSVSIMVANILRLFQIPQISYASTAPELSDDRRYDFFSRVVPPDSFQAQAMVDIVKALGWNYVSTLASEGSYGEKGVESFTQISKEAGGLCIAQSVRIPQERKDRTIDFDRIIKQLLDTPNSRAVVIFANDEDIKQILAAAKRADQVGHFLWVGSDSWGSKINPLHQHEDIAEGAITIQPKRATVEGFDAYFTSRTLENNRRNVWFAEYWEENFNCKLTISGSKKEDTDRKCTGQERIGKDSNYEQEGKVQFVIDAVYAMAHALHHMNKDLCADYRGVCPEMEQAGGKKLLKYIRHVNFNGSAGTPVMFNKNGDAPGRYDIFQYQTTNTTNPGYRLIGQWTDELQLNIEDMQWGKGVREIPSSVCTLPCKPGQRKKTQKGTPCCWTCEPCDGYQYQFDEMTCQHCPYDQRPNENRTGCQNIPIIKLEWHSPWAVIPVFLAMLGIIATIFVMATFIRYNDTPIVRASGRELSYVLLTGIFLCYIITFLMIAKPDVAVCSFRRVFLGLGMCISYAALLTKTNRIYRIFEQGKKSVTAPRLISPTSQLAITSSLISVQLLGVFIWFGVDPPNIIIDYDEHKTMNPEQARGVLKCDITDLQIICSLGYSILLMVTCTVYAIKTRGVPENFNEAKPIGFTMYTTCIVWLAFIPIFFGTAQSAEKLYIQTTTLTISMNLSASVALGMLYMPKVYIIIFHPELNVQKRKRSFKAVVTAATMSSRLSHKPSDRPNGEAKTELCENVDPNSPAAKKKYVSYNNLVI
UniProt Q14831, whole entry: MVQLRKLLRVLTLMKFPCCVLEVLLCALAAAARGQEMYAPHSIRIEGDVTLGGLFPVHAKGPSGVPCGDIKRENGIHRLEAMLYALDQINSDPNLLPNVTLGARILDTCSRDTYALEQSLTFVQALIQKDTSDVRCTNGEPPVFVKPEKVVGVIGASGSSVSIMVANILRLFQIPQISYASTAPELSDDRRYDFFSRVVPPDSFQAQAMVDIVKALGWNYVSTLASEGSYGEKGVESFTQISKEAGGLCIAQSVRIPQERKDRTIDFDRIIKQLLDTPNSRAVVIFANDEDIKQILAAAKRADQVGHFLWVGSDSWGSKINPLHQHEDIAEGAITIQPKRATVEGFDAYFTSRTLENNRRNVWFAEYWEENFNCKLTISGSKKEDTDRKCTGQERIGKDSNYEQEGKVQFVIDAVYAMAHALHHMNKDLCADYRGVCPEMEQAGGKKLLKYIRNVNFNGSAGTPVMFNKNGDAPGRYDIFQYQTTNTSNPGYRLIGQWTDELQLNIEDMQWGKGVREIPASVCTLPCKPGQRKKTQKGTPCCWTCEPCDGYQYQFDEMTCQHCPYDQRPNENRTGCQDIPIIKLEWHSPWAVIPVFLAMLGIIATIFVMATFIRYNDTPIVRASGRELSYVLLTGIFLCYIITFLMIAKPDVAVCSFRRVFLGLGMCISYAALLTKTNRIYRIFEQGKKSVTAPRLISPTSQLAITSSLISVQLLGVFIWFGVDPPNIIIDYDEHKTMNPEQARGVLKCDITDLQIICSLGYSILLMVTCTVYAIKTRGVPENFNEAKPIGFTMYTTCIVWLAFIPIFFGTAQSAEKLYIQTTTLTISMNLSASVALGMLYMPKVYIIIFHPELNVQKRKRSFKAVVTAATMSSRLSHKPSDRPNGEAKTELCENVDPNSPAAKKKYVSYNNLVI

The target of experiment [1] is Metabotropic glutamate receptor 7 (Rattus norvegicus, UniProt P35400). Description: Negative allosteric modulation of rat mGlu7 in HEK cells expressing Galpha15 assessed as inhibition of L-AP4-induced response measured by calcium mobilization assay. Type of experiment: functional, cell-based. On the technique in general: Calcium assays in cells follow changes in intracellular calcium, usually with a dye or a luminescent sensor.

Experiment [2] has as its target Metabotropic glutamate receptor 7 (Homo sapiens, UniProt Q14831).

The structures appear in SMILES notation.

Regarding `COc1cc(C(=O)Nc2cc(OC(F)(F)F)ccc2-n2cncn2)ccc1OC(C)C`, the IC50 in experiment [1] (read-out: IC50) was 890 nM; in experiment [2], 5200 nM. Take `COc1ccc(-c2nnc(-c3cc(Cl)ccc3-c3ccnn3C)o2)cc1OC`: the IC50 in experiment [1] (read-out: IC50) was 1600 nM. Same read-out and setting: under `COc1ccc(-c2nnc(-c3cc(OC(F)(F)F)ccc3-n3cccn3)o2)cc1OC` stands 1800 nM; under `COc1ccc(-c2noc(-c3cc(Cl)ccc3-n3cncn3)n2)cc1OC`, 1100 nM; under `COc1cc(F)c(-c2noc(-c3cc(Cl)ccc3-n3cncn3)n2)c(F)c1OC`, 3600 nM. The same measure, in the same setting: as for `COc1ccc(-c2nnc(-c3cc(Cl)ccc3-c3cn[nH]c3)o2)cc1OC`, the figure is 1500 nM; as for `COc1ccc(-c2coc(-c3cc(Cl)ccc3-n3cncn3)n2)cc1OC`, 1900 nM. On to `CCCOc1ccc(C(=O)Nc2cc(OC(F)(F)F)ccc2-n2cncn2)cc1OC`, for which the IC50 in experiment [1] (read-out: pIC50 (converted)) was 794 nM. With `COc1cc(-c2noc(-c3cc(Cl)ccc3-n3cncn3)n2)cc(F)c1OC`, the IC50 in experiment [1] (read-out: IC50) is 2700 nM. On the same count and under the same terms, as for `CCOc1ccc(C(=O)Nc2cc(OC(F)(F)F)ccc2-n2cncn2)cc1OC`, the figure is 550 nM. On to `COc1ccc(-c2nnc(-c3cc(OC(F)(F)F)ccc3-c3ccnn3C)o2)cc1OC`, for which the IC50 in experiment [1] (read-out: pIC50 (converted)) was 1260 nM. Same read-out and setting: under `COc1ccc(C(=O)Nc2cc(OC(F)(F)F)ccc2-n2cncn2)cc1OC` stands 794 nM.
